Measured melting point values of organic chemicals

Source: data files of OPERA 2.9 (Mansouri et al.), github.com/kmansouri/OPERA.

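These are experimental values that the OPERA curators gathered from public databases to train and test their QSAR models. One number stands for a compound and property, with no spread given. How each value was measured is not recorded, so precision varies. The measured form (salt, isomer or mixture) is not always the one drawn. Unmarked limits or estimates from the upstream databases cannot be ruled out.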

Melting points are in °C. "via" names the databases from which the curators took the value.

{"smiles": "CC(=O)C[C@H]1[C@@H](C(=O)O)C1(C)C", "stereo": "stereo in doubt", "melting point (°C)": "55.75", "via": "eChemPortal"}
{"smiles": "O=C(O)CCC(CC(=O)O)(C(=O)O)P(=O)(O)O", "stereo": "configuration not stated", "name": "2-Phosphono-1,2,4-butanetricarboxylic acid", "melting point (°C)": "9.35", "via": "eChemPortal"}
{"smiles": "CS(=O)(=O)c1ccc(CNc2ncccc2Br)c(C(F)(F)F)c1", "melting point (°C)": "122", "via": "eChemPortal"}
{"smiles": "CC(C)(C)c1ccc(Nc2ccc(Nc3ccc(C(C)(C)C)cc3)c3c2C(=O)c2c(O)ccc(O)c2C3=O)cc1", "melting point (°C)": "258", "via": "eChemPortal"}
{"smiles": "COc1ccc(C(CN)C2(O)CCCCC2)cc1.Cl", "stereo": "configuration not stated", "name": "N,N-Didesmethylvenlafaxine hydrochloride", "melting point (°C)": "176.7", "via": "eChemPortal"}
{"smiles": "O=C(O)c1cc(-c2ccc(Cl)s2)nc2ccccc12", "name": "2-(5-chlorothiophen-2-yl)quinoline-4-carboxylic acid", "melting point (°C)": "243", "via": "OCHEM"}
{"smiles": "CC(=O)Oc1ccc(C(=O)O)cc1OC(C)=O", "name": "Benzoic acid, 3,4-bis(acetyloxy)-", "melting point (°C)": "160", "via": "OCHEM"}
{"smiles": "CN(C)S(=O)(=O)c1ccc(C(=O)O)cc1", "name": "Benzoic acid, p-(dimethylsulfamoyl)-", "melting point (°C)": "250", "via": "OCHEM"}
{"smiles": "CCOC(=O)c1ccc(S(=O)(=O)Cl)cc1", "name": "4-Chlorosulfonyl-benzoic acid ethyl ester", "melting point (°C)": "50", "via": "OCHEM"}
{"smiles": "COc1ccc2cc(C(=O)O)c(C)nc2c1", "name": "7-methoxy-2-methylquinoline-3-carboxylic acid", "melting point (°C)": "210", "via": "OCHEM"}
{"smiles": "O=C(O)c1[nH]c2ccccc2c1Cl", "name": "3-Chloro-1H-indole-2-carboxylic acid", "melting point (°C)": "180", "via": "OCHEM"}
{"smiles": "Cc1ccc2c(c1)CC[C@H]([C@H]1CO1)O2", "melting point (°C)": "-47.3", "via": "eChemPortal"}
{"smiles": "C1CCOCOC1", "name": "1,3-Dioxepane", "melting point (°C)": "-77.5", "via": "eChemPortal"}
{"smiles": "CCCCCCCCCCCC(=O)OCC(C)(C)C=NCC1(C)CC(N=CC(C)(C)COC(=O)CCCCCCCCCCC)CC(C)(C)C1", "stereo": "configuration not stated", "melting point (°C)": "-39", "via": "eChemPortal"}
{"smiles": "CN(C)S(=O)(=O)c1ccc(C(=O)CBr)cc1", "name": "4-(Bromoacetyl)-N,N-dimethylbenzene-1-sulfonamide", "melting point (°C)": "91", "via": "OCHEM"}
{"smiles": "CCOc1cc(C#N)ccc1O", "name": "3-ethoxy-4-hydroxybenzonitrile", "melting point (°C)": "76", "via": "OCHEM"}
{"smiles": "OCc1ccncn1", "name": "(Pyrimidin-4-yl)methanol", "melting point (°C)": "76.5", "via": "OCHEM"}
{"smiles": "Nc1ccc(S(=O)(=O)CCOS(=O)(=O)O)cc1", "melting point (°C)": "272.5", "via": "eChemPortal"}
{"smiles": "Nc1nnc(-c2ccncc2)o1", "name": "1,3,4-Oxadiazole, 2-amino-5-(4-pyridyl)-", "melting point (°C)": "240", "via": "OCHEM"}
{"smiles": "CC(=O)CC(=O)Nc1ccccc1F", "name": "n-(2-fluorophenyl)-3-oxobutanamide", "melting point (°C)": "76", "via": "OCHEM"}
{"smiles": "CC(C)(C)c1cc(CCC(=O)OCCNC(=O)C(=O)NCCOC(=O)CCc2cc(C(C)(C)C)c(O)c(C(C)(C)C)c2)cc(C(C)(C)C)c1O", "melting point (°C)": "178", "via": "eChemPortal"}
{"smiles": "C=CC(=O)OCC(O)COc1ccccc1", "stereo": "configuration not stated", "name": "2-Hydroxy-3-phenoxypropyl prop-2-enoate", "melting point (°C)": "-48.1", "via": "eChemPortal"}
{"smiles": "CCC(C)NC(N)=O", "stereo": "configuration not stated", "name": "sec-Butylurea", "melting point (°C)": "171", "via": "OFMPub"}
{"smiles": "N#Cc1ccc(CCC(=O)O)cc1", "name": "3-(4-cyanophenyl)propanoic Acid", "melting point (°C)": "138", "via": "OCHEM"}
{"smiles": "COc1ccccc1C(C)O", "stereo": "configuration not stated", "name": "1-(2-Methoxyphenyl)ethan-1-ol", "melting point (°C)": "-85.1", "via": "OCHEM"}
{"smiles": "O=C(O)COc1ccc(Oc2ccccc2)cc1", "name": "Acetic acid, (4-phenoxyphenoxy)-", "melting point (°C)": "128", "via": "OCHEM"}
{"smiles": "O.O=C(O)c1cc(=O)[nH]c(=O)[nH]1", "melting point (°C)": "334", "via": "OCHEM"}
{"smiles": "Oc1cccc(-c2cccc(O)c2)c1", "name": "3,3'-Biphenyldiol", "melting point (°C)": "125", "via": "OCHEM"}
{"smiles": "Cc1ccc(NS(=O)(=O)c2cc(N)ccc2Cl)c(C)c1", "name": "Benzenesulfonamide, 5-amino-2-chloro-N-(2,4-dimethylphenyl)-", "melting point (°C)": "58", "via": "OCHEM"}
{"smiles": "Cn1nc(C(=O)NN)c2ccccc2c1=O", "name": "3-Methyl-4-oxo-3,4-dihydrophthalazine-1-carbohydrazide", "melting point (°C)": "135", "via": "OCHEM"}
{"smiles": "O=C(O)Cn1[nH]c(=O)c2ccccc2c1=O", "name": "(1,4-dioxo-3,4-dihydrophthalazin-2(1H)-yl)acetic acid", "melting point (°C)": "273", "via": "OCHEM"}

A selection of 2 entries from above:

{"smiles": "O=C(O)COc1ccc(Oc2ccccc2)cc1", "name": "Acetic acid, (4-phenoxyphenoxy)-", "melting point (°C)": "128", "via": "OCHEM"}
{"smiles": "COc1ccc(C(CN)C2(O)CCCCC2)cc1.Cl", "stereo": "configuration not stated", "name": "N,N-Didesmethylvenlafaxine hydrochloride", "melting point (°C)": "176.7", "via": "eChemPortal"}